From PubChem BioAssay
In the library only some 1.7% were active in any assay of this set; here they are far more common.
CAL PDZ FP-1: human CAL PDZ-peptide interaction inhibition; purified CAL PDZ, TMR-peptide fluorescence polarization, 1 h; AID 504414; inhibition, % at 20 µM; hit rate 0.02% among 330,000;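 active = highest replicate inhibition of at least 40%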;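 also: plate controls were DMSO neutral control wells for no effect and unlabeled competitor peptide control wells for full effect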
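Material: tagged CAL PDZ domain; buffer or medium: 25 mM sodium phosphate pH 7.4, 150 mM NaCl, TCEP, IgG, Thesit; compound dosing: single point, 20 µM; schedule: 1 h incubation at room temperature before polarization reading; measured by: FP readout, S and P plane fluorescence; read-out basis: percent inhibition from loss of millipolarization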
dFosB act: mouse delta FosB homodimer activation; P13346; purified delta FosB, TAMRA-CDK5 oligo fluorescence polarization; percent of positive-control signal above neutral wells; activation, % at 25 µM; hit rate 0.99% among 340,000; AID 493131;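 active = mean activation above about 17%, with every replicate also reaching it, limit read from the data, passing the limit was not always enough; inconclusive = only one of the two conditions met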
Yeast UUG start: modulators of start codon recognition fidelity in yeast; S. cerevisiae UUG-firefly luciferase reporter, luminescence/redox ratio; AID 602363; 350,000 tested, 0.13% active; activity score, % at 18.7 µM;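 active = replicate mean at a twofold rise or more, about +100% in these data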;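 also: firefly luciferase made from a UUG start codon reports start codon fidelity; reporter light over untreated wells divided by growth signal over untreated wells; some hits fall short of that in this replicate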
Dyrk1A ADPGlo: inhibitors of rat Dyrk1A kinase; Q63470; ADP-Glo luminescence, NFATc1 peptide; inhibition, % at 12.5 µM; hit rate 0.43% among 310,000; in the data active = inhibition above about 50%;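 also: plate controls were vehicle with enzyme for no effect and no enzyme for full effect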
CDK5 p35 inh: inhibitors of human CDK5/p35 kinase | Q00535+Q15078 | Recombinant CDK5/p35, ADP-Glo luminescence, 60 min | inhibition, % at 10 µM | hit rate 0.01% among 330,000 | AID 488839;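 active = highest replicate inhibition of at least 50% and at least 75% of replicates reaching 50%; inconclusive = only one of the two criteria met; inactive = both criteria failed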;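 also: plate controls were DMSO neutral control for no effect and GW8510 at 10 µM for full effect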
CAL PDZ FP-2: blocks peptide binding to the human CAL PDZ domain; Q9HD26; purified CAL PDZ, TMR-peptide fluorescence polarization, 1 h; inhibition, % at 24.9 µM; hit rate 0.92% among 300,000;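 active = mean inhibition of at least 30% with at least half of replicates also reaching 30%; inconclusive = no clear call, values can overlap the other calls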;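 also: 0% = DMSO neutral control and 100% = excess unlabeled competitor peptide PRC23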
An asterisk follows results filed as active; ? = inconclusive; . = no result given; + = active, no number.

| # | smiles | CAL PDZ FP-1 | dFosB act | Yeast UUG start | Dyrk1A ADPGlo | CDK5 p35 inh | CAL PDZ FP-2 |
| --- | --- | --- | --- | --- | --- | --- | --- |
| 1 | COc1ccc(NC(=O)N[C@H]2CC[C@H](CC(=O)NCc3ccccn3)O[C@H]2CO)cc1 | . | . | 0 | . | . | . |
| 2 | CSc1cccc(NC(=S)N(CCCN2CCCC2)Cc2cccn2Cc2ccc(Cl)cc2)c1 | -2 | 27* | -27 | -5 | -1 | -2 |
| 3 | S=C(Nc1cccc(Cl)c1)N(CCCN1CCCC1)Cc1cccn1Cc1ccc(Cl)cc1 | -2 | 13 | -24 | -1 | -2 | -6 |
| 4 | CCCC(=O)Nc1cc(S(=O)(=O)N2CCCCC2)ccc1N1CCOCC1 | 0 | -3 | -14 | . | 1 | 59* |
| 5 | CN1CCN(c2ccc(S(=O)(=O)N3CCCCC3)cc2NC(=O)/C=C/c2ccc(OC(F)F)cc2)CC1 | -3 | -19 | -4 | 19 | 0 | -2 |
| 6 | CN1CCN(c2ccc(S(=O)(=O)N3CCCCC3)cc2NC(=O)/C=C/c2ccc(Cl)c([N+](=O)[O-])c2)CC1 | 1 | 52* | 5 | 4 | -1 | -3 |
| 7 | CCN1CCN(c2ccc(S(=O)(=O)N3CCCCC3)cc2NC(=O)/C=C/c2ccc([N+](=O)[O-])cc2)CC1 | -3 | 52* | -7 | 15 | 2 | 4 |
| 8 | C[C@H]1CCCCO[C@H](CN(C)S(=O)(=O)c2cn(C)cn2)[C@@H](C)CN([C@@H](C)CO)C(=O)c2cc(NC(=O)CCCN(C)C)ccc2O1 | . | . | -26 | . | . | . |
| 9 | C[C@H](CO)N1C[C@H](C)[C@H](CN(C)C(=O)Nc2ccc(F)cc2)Oc2c(NS(=O)(=O)c3cn(C)cn3)cccc2C1=O | . | . | -8 | . | . | . |
| 10 | CCC(/C=C1\Sc2ccc(OC)cc2N1CC)=C\c1sc2ccc(OC)cc2[n+]1CCCS(=O)(=O)[O-] | -8 | 134* | 3 | 2 | 4 | 9 |
| 11 | CCC(/C=C1\Sc2ccc(OC)cc2N1CCO)=C\c1sc2ccc(OC)cc2[n+]1CCO | -9 | ? | -8 | 8 | 6 | -13 |
| 12 | Cc1ccc(S(=O)(=O)N2CCN(C(=O)COC(=O)COc3ccc(Cl)c(C)c3)CC2)c(C)c1 | 0 | 2 | -12 | . | 1 | -2 |
| 13 | Cc1ccc(S(=O)(=O)N2CCN(C(=O)COC(=O)COc3ccc(Cl)cc3)CC2)c(C)c1 | 0 | 208* | -16 | . | 0 | -2 |
| 14 | O=C(O)c1ccc(N/N=C/c2cc(Br)cs2)cc1 | 1 | -1 | -52 | . | 0 | 36* |
| 15 | Cc1ccc(NS(=O)(=O)c2ccc(NC(=O)c3ccccc3C(=O)O)cc2)c(C)c1 | 0 | 3 | . | 0 | 0 | 4 |
| 16 | Cc1ccc(NS(=O)(=O)c2ccc(NC(=O)c3ccc(-c4ccccc4)cc3)cc2)c(C)c1 | -3 | 54* | -50 | -4 | 2 | -3 |

Of the compounds above, these contain a COOH group:
| # | smiles | CAL PDZ FP-1 | dFosB act | Yeast UUG start | Dyrk1A ADPGlo | CDK5 p35 inh | CAL PDZ FP-2 |
| --- | --- | --- | --- | --- | --- | --- | --- |
| 14 | O=C(O)c1ccc(N/N=C/c2cc(Br)cs2)cc1 | 1 | -1 | -52 | . | 0 | 36* |
| 15 | Cc1ccc(NS(=O)(=O)c2ccc(NC(=O)c3ccccc3C(=O)O)cc2)c(C)c1 | 0 | 3 | . | 0 | 0 | 4 |

Next part:
| # | smiles | CAL PDZ FP-1 | dFosB act | Yeast UUG start | Dyrk1A ADPGlo | CDK5 p35 inh | CAL PDZ FP-2 |
| --- | --- | --- | --- | --- | --- | --- | --- |
| 17 | COc1ccccc1C(=O)Nc1ccc2c(c1)nc(CN1CCCCC1)n2C | -1 | -5 | -30 | -6 | -1 | 71* |
| 18 | C[C@H]1CN([C@@H](C)CO)C(=O)Cc2cc(NS(=O)(=O)c3cccs3)ccc2O[C@@H]1CN(C)C | . | . | 23 | . | . | . |
| 19 | CCC(=O)N1CC[C@@H]2[C@H](CO)Nc3ccc(-c4ccccc4)cc3[C@@H]21 | . | . | -11 | . | . | . |
| 20 | O=C(Nc1ccccc1)c1ccc(S(=O)(=O)NCc2ccco2)cc1 | -1 | 4 | -21 | -3 | 0 | 39* |
| 21 | CCC(=O)Nc1ccc(S(=O)(=O)NCc2ccco2)cc1 | 144* | -7 | -4 | -3 | -1 | -1 |
| 22 | Cc1ccc(C(=O)Nc2ccc(S(=O)(=O)NCc3ccco3)cc2)cc1 | 0 | 6 | -25 | 2 | 1 | . |
| 23 | CCOc1ccc(Cl)cc1S(=O)(=O)N1CCC(C(=O)NCc2ccco2)CC1 | -1 | -2 | 2 | 3 | 0 | 98* |
| 24 | CC/C(=N\NS(=O)(=O)c1ccc(C)cc1)c1ccco1 | . | 6 | -15 | -3 | -2 | 36* |
| 25 | O=C(Nc1ccc(S(=O)(=O)NCc2ccco2)cc1)c1ccc(F)cc1 | 0 | -3 | -16 | 4 | 0 | -1 |
| 26 | Cc1noc(C)c1S(=O)(=O)Nc1ccc2c(c1)C(=O)N([C@H](C)CO)C[C@H](C)[C@@H](CN(C)S(=O)(=O)c1ccc(F)cc1)OCCCC[C@H](C)O2 | . | . | 83 | . | . | . |
| 27 | O=C(NCC[C@@H]1CC[C@@H](NS(=O)(=O)Cc2ccccc2)[C@H](CO)O1)C1CC1 | . | . | -3 | . | . | . |
| 28 | COc1ccc(S(=O)(=O)N(C)C[C@H]2Oc3c(NC(=O)Nc4ccc5c(c4)OCO5)cccc3C(=O)N([C@@H](C)CO)C[C@H]2C)cc1 | . | . | 2 | . | . | . |
| 29 | C[C@@H]1CN([C@H](C)CO)C(=O)Cc2cc(NC(=O)c3ccncc3)ccc2O[C@H]1CN(C)C(=O)Nc1cccc2ccccc12 | . | . | 1 | . | . | . |
| 30 | CCOc1cc(C)c(Cl)cc1S(=O)(=O)NCc1ccco1 | -2 | -5 | 310* | 3 | 0 | . |
| 31 | Cc1ccc(-c2ccc(S(=O)(=O)NCc3ccco3)cc2)cc1 | 0 | -10 | . | -3 | 2 | + |
| 32 | C[C@@H]1CN([C@H](C)CO)C(=O)c2cc(NC(=O)CCC(F)(F)F)ccc2O[C@@H](C)CCCCO[C@H]1CN(C)C(=O)Nc1ccc(C(F)(F)F)cc1 | . | . | -13 | . | . | . |

Compound profiles (already shown). Screens in order: CAL PDZ FP-1	dFosB act	Yeast UUG start	Dyrk1A ADPGlo	CDK5 p35 inh	CAL PDZ FP-2
Results for O=C(Nc1ccc(S(=O)(=O)NCc2ccco2)cc1)c1ccc(F)cc1 : 0	-3	-16	4	0	-1
Results for COc1ccc(S(=O)(=O)N(C)C[C@H]2Oc3c(NC(=O)Nc4ccc5c(c4)OCO5)cccc3C(=O)N([C@@H](C)CO)C[C@H]2C)cc1 : .	.	2	.	.	.

Later entries:
| # | smiles | CAL PDZ FP-1 | dFosB act | Yeast UUG start | Dyrk1A ADPGlo | CDK5 p35 inh | CAL PDZ FP-2 |
| --- | --- | --- | --- | --- | --- | --- | --- |
| 33 | C[C@H](CO)N1C[C@H](C)[C@@H](CN(C)Cc2ccc3c(c2)OCO3)Oc2ccc(NC(=O)Cc3ccccc3)cc2CC1=O | . | . | 8 | . | . | . |
| 34 | CC(C)c1ccc(S(=O)(=O)N2CCN(C(=O)c3cccc(F)c3)CC2)cc1 | 1 | -2 | -19 | . | 3 | 46* |
| 35 | C[C@@H]1CN([C@H](C)CO)C(=O)c2cc(NC(=O)Cc3cn(C)c4ccccc34)ccc2O[C@H]1CN(C)C(=O)NC1CCCCC1 | . | . | 10 | . | . | . |
| 36 | CC(C)C[C@@H](CNCC(=O)[C@H](Cc1c[nH]c2ccccc12)NC(=O)c1[nH]cnc1C(=O)N[C@@H](C)CN)NC(=O)c1nc[nH]c1C(=O)N[C@@H](Cc1ccccc1)C(=O)O | 1 | -15 | 131* | -3 | 1 | 3 |
| 37 | COc1cc(/C=N/NC(=O)Nc2cccc3nsnc23)cc(OC)c1OC | 1 | -6 | . | -9 | 1 | 0 |
| 38 | O=C(N/N=C/c1ccc(O)cc1)Nc1cccc2nsnc12 | 4 | 13 | . | . | 0 | 31* |
| 39 | O=C(CSc1nc2nn(-c3ccccc3)c(=O)c-2c2n1CCCCC2)Nc1ccc(OC(F)F)cc1 | 5 | 3 | -4 | 4 | 0 | 127* |
| 40 | C[C@@]12C(=O)Nc3ccc(Br)cc3C(=O)N1[C@H]1c3cc(Cl)ccc3OC[C@@H]1[C@@H]2c1ccccc1 | 0 | 25* | -2 | 7 | 1 | 3 |
| 41 | CC(C)N1CCc2c(sc(NC(=O)c3ccc(C(=O)c4ccccc4)cc3)c2C(N)=O)C1 | -4 | 29* | 5 | 8 | 1 | -7 |
| 42 | CC(=O)Nc1sc2c(c1-c1nc3ccccc3s1)CCN(C(C)C)C2 | -2 | 35* | -10 | 6 | 1 | -4 |
| 43 | CC(C)N1CCc2c(sc(NC(=O)c3cc4cc([N+](=O)[O-])ccc4s3)c2C(N)=O)C1 | 2 | 48* | -9 | 19 | 1 | 3 |
